Measured values from BindingDB's records for doi:10.1021/acschembio.6b00217 (Broad Institute, 2016).

Chains of the proteins cited; added tags and fusions are not shown. Lines headed by an entry give the natural chain unless they say otherwise; changes in a name come on top.
UniProt Q9H0K1: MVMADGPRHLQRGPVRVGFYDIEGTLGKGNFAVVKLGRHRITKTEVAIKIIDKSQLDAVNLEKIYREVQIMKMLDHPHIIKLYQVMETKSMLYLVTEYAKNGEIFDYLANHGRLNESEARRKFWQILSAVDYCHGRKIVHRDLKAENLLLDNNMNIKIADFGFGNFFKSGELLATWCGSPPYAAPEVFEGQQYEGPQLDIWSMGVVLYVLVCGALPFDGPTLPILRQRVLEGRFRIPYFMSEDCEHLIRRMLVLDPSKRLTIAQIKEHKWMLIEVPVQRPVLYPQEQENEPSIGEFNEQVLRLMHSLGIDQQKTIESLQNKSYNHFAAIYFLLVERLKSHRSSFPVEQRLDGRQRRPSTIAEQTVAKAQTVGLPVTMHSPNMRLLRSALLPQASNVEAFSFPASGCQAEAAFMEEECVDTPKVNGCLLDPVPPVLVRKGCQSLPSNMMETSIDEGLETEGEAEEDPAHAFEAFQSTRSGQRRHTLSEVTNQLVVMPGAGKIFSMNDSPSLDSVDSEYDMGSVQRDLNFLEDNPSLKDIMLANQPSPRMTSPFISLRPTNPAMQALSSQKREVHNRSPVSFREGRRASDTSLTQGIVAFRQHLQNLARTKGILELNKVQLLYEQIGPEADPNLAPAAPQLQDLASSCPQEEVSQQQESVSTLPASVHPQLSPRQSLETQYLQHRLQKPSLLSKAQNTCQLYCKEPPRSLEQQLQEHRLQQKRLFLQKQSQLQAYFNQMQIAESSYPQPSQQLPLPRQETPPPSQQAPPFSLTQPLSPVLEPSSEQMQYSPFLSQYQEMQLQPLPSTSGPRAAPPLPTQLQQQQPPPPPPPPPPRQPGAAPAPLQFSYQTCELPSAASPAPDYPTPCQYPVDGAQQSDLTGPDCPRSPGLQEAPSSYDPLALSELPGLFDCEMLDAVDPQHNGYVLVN

Molecular target: Serine/threonine-protein kinase SIK2 (Homo sapiens, UniProt Q9H0K1)
Assay: Caliper-based Mobility Shift Assay
Settings: pH 8
Protocol: IC50‘s for HG-9-91-01 derivatives were measured by Caliper-based mobility shift assay (PerkinElmer). […] Reactions were quenched by adding 20 mM EDTA (pH 8) after 1 hr, and percentage of substrate conversion was measured by LabChip EZ Reader II (PerkinElmer).

IC50: 19.5 nM
Compound: COc1ccc(N2C(=O)N(c3c(C)cccc3Cl)Cc3cnc(Nc4ccc(N5CCN(C)CC5)cc4)nc32)c(OC)c1 [HG-9-91-01 derivative, 2]
